Here are results for 1 compound from BindingDB's records for doi:10.1021/jm00018a028 (University of Nebraska Medical Center, 1995).

The term EC50 denotes the concentration that produces a half-maximal response. Lower therefore signals an effect from little substance.

This assay is described as follows: Ability to induce shape change (polarization) in human polymorphonuclear leukocytes (PMN).

Regarding `CC[C@H](C)[C@H](N)C(=O)N[C@@H](CO)C(=O)N[C@@H](Cc1ccccc1)C(=O)N[C@@H](CCCCN)C(=O)N[C@@H](CC(=O)O)C(=O)N[C@@H](CCSC)C(=O)N[C@@H](CCC(N)=O)C(=O)N[C@@H](CC(C)C)C(=O)NCC(=O)N[C@@H](CCCNC(=N)N)C(=O)O`, a half-maximal response (EC50) required 900 nM.
